Test results from patent publication US7320803B2, “Crystalline choline ascorbate” (BASF Aktiengesellschaft, priority 2001, dated 2008).

Conditions: crystals, in contrast to the choline ascorbate occurring as oil

- hygroscopicity: only slightly hygroscopic
Substance: choline ascorbate [choline ascorbate crystals]
